In this assay the test system is sAPPβ release, SH-SY5Y cells. As to the kind of experiment: sAPPβ release assay. The format is cell-based. Particulars: 17 h incubation. The protocol:
SH-SY5Y cells were cultured in DMEM/F-12 with Glutamax, 10% FCS and 1% non-essential amino acids and cryopreserved and stored at −140° C. at a concentration of 7.5−9.5×10^6 cells per vial. Thaw cells and seed at a conc. of around 10000 cells/well in DMEM/F-12 with Glutamax, 10% FCS and 1% non-essential amino acids to a 384-well tissue culture treated plate, […] cell susp/well. The cell plates were then incubated for 7-24 h at 37° C., 5% CO2. The cell medium was removed, followed by addition of 30 μL compound diluted in DMEM/F-12 with Glutamax, 10% FCS, 1% non-essential amino acids and 1% PeSt to a final conc. of 1% DMSO. The compounds were incubated with the cells for 17 h (overnight) at 37° C., 5% CO2. Meso Scale Discovery (MSD) plates were used for the detection of sAPPβ release. MSD sAPPβ plates were blocked in 1% BSA in Tris wash buffer (40 μL/well) for 1 h on shake at r.t. and washed 1 time in Tris wash buffer (40 μL/well). 20 μL of medium was transferred to the pre-blocked and washed MSD sAPPβ microplates, and the cell plates were further used in an ATP assay to measure cytotoxicity. The MSD plates were incubated with shaking at r.t. for 2 h and the media discarded. 10 μL detection antibody was added (1 nM) per well followed by incubation with shaking at r.t. for 2 h and then discarded. 40 μL Read Buffer was added per well and the plates were read in a SECTOR Imager.

In general, IC50 refers to the point on the concentration scale where inhibition reaches its midpoint. Lower therefore signals greater potency. For the compound `CO[C@H]1CC[C@]2(CC1)Cc1cc(F)c(-c3cc(Cl)cc(C#N)c3)cc1[C@@]21N=C(C)C(N)=N1` (single isomer, unassigned; isomer 1) [6 Isomer 1], the IC50 came out at 0.8 nM.

As for `CO[C@H]1CC[C@]2(CC1)Cc1cc(F)c(-c3cc(Cl)cc(C#N)c3)cc1[C@]21N=C(C)C(N)=N1` (single isomer, unassigned; isomer 2) [6 Isomer 2], the midpoint of inhibition, the IC50, lay at 986 nM.

On to `COC1CCC2(CC1)Cc1cc(F)c(Br)cc1C21N=C(C)C(N)=N1` (stereo not drawn) [Example 4, 6′-Bromo-5′-fluoro-4-methoxy-5″-methyl-3′H-dispiro[cyclohexane-1,2′-indene-1′,2″-imidazol]-4″-amine], for which the IC50 (Homo sapiens) came to 176 nM.

These data come from patent US9000183B2, “Cyclohexane-1,2′-indene-1′,2″-imidazol compounds and their use as BACE inhibitors” (AstraZeneca AB, priority 2012, dated 2015).
